{
  "sequences": {"note": "Protein sequences, listed by entry. Tags and fused reporters are not part of them.", "UniProt P18901, whole entry": "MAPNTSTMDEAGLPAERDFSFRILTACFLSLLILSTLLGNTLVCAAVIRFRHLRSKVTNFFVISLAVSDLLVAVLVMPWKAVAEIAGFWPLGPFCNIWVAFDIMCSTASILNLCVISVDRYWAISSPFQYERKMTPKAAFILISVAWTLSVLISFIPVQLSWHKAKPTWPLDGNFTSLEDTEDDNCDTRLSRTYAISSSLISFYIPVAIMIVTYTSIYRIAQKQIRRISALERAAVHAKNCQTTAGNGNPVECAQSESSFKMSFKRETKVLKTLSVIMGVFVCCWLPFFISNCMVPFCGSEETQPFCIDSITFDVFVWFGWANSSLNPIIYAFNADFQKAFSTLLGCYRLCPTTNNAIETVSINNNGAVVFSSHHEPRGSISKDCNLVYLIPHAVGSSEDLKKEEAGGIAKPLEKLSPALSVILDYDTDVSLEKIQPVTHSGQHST", "UniProt P31390, whole entry": "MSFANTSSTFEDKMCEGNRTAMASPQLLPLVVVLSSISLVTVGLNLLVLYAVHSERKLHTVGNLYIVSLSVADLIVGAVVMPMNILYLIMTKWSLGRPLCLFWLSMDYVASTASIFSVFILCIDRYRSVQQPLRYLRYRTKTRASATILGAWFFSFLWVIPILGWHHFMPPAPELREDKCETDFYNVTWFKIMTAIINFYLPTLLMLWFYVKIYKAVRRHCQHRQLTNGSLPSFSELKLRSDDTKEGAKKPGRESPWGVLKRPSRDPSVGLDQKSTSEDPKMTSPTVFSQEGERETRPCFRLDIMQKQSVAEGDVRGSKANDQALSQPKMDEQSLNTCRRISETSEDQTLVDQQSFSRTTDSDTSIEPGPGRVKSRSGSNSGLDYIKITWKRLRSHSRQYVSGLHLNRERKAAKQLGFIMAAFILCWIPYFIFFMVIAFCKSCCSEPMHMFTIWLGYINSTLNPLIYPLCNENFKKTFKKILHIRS", "UniProt P19020, whole entry": "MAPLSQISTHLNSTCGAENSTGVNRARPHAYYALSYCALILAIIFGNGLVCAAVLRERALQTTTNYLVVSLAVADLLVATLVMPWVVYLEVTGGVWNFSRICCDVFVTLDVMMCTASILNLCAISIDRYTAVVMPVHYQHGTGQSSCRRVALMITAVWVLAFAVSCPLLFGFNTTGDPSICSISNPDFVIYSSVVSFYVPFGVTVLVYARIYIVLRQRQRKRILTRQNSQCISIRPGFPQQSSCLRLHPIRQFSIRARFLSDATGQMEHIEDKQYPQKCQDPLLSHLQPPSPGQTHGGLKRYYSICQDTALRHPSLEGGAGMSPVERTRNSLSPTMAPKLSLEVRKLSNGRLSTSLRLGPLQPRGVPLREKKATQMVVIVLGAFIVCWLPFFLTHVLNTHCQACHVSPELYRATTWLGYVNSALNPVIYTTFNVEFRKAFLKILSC", "UniProt P14842, whole entry": "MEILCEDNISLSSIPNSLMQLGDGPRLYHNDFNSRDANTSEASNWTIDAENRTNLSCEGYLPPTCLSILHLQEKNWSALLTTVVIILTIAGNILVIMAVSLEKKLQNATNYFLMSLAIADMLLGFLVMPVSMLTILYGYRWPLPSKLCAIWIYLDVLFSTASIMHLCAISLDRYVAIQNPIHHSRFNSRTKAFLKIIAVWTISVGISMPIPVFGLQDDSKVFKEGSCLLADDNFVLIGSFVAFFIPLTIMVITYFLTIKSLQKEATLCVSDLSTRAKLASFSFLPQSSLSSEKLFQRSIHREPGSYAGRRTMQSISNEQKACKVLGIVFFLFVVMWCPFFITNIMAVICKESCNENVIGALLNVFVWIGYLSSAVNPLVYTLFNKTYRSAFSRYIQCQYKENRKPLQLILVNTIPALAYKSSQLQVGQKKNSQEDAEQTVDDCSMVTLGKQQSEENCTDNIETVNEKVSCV"},
  "source": "ChEMBL document CHEMBL1135802",
  "about": "“Pyrrolo[1,3]benzothiazepine-based atypical antipsychotic agents. Synthesis, structure-activity relationship, molecular modeling, and biological studies” (J Med Chem, 2002)",
  "key": {"D(1A) dopamine receptor [1]": {"molecular_target": "T1, D(1A) dopamine receptor (Rattus norvegicus, UniProt P18901)"}, "Histamine H1 receptor": {"molecular_target": "Histamine H1 receptor (Rattus norvegicus, UniProt P31390)", "assay": "biochemical", "assay_type": "tissue-based, Frontal cortex"}, "D(3) dopamine receptor [2]": {"molecular_target": "T2, D(3) dopamine receptor (Rattus norvegicus, UniProt P19020)", "set-up": "species or system Tissue"}, "D(3) dopamine receptor [3]": {"molecular_target": "T2, D(3) dopamine receptor", "set-up": "species or system Tissue", "remark": "listed apart in the source"}, "[4]": {"molecular_target": "T3, 5-hydroxytryptamine receptor 2A (Rattus norvegicus, UniProt P14842)", "assay": "biochemical", "assay_type": "tissue-based, Cerebral cortex"}, "D(1A) dopamine receptor [5]": {"molecular_target": "T1, D(1A) dopamine receptor", "remark": "listed apart in the source"}, "[6]": {"molecular_target": "T3, 5-hydroxytryptamine receptor 2A", "assay": "biochemical"}, "D(3) dopamine receptor [7]": {"molecular_target": "T2, D(3) dopamine receptor", "set-up": "species or system Tissue", "remark": "listed apart in the source"}},
  "data": [
    {"molecule": "CN1CCN([C@H]2Cn3cccc3Sc3ccc(Cl)cc32)CC1", "values": [
      {"measurement": "Ki", "setting": "D(1A) dopamine receptor [1]", "value": 22, "unit": "nM"}
    ]},
    {"molecule": "CN1CCN([C@@H]2Cn3cccc3Sc3ccc(Cl)cc32)CC1", "values": [
      {"measurement": "Ki", "setting": "Histamine H1 receptor", "value": 21.3, "unit": "nM"}
    ]},
    {"molecule": "CN1CCN([C@@H]2Cn3cccc3Sc3ccccc32)CC1", "note": "(stereo in doubt; (+)-6a)", "values": [
      {"measurement": "Ki", "setting": "D(3) dopamine receptor [2]", "value": 851, "unit": "nM"},
      {"measurement": "Ki", "setting": "D(3) dopamine receptor [3]", "value": 854, "unit": "nM"}
    ]},
    {"molecule": "CN1CCN([C@H]2Cn3cccc3Sc3ccc(F)cc32)CC1", "note": "(stereo in doubt; (+)-6b)", "values": [
      {"measurement": "Ki", "setting": "[4]", "value": 3.98, "unit": "nM"},
      {"measurement": "Ki", "setting": "D(1A) dopamine receptor [1]", "value": 60, "unit": "nM"},
      {"measurement": "Ki", "setting": "D(3) dopamine receptor [2]", "value": 407, "unit": "nM"},
      {"measurement": "Ki", "setting": "D(3) dopamine receptor [3]", "value": 407, "unit": "nM"},
      {"measurement": "Ki", "setting": "D(1A) dopamine receptor [5]", "value": 60.3, "unit": "nM"},
      {"measurement": "Ki", "setting": "Histamine H1 receptor", "value": 33, "unit": "nM"},
      {"measurement": "Ki", "setting": "[6]", "value": 3.5, "unit": "nM"}
    ]},
    {"molecule": "CN1CCN([C@@H]2Cn3cccc3Sc3ccccc32)CC1", "note": "(stereo in doubt; (-)-6a)", "values": [
      {"measurement": "Ki", "setting": "D(3) dopamine receptor [7]", "value": 23, "unit": "nM"}
    ]},
    {"molecule": "CN1CCN([C@H]2Cn3cccc3Sc3ccc(F)cc32)CC1", "note": "(stereo in doubt; (-)-6b)", "values": [
      {"measurement": "Ki", "setting": "D(1A) dopamine receptor [1]", "value": 63, "unit": "nM"},
      {"measurement": "Ki", "setting": "D(3) dopamine receptor [2]", "value": 9.33, "unit": "nM"},
      {"measurement": "Ki", "setting": "D(3) dopamine receptor [3]", "value": 9.3, "unit": "nM"},
      {"measurement": "Ki", "setting": "Histamine H1 receptor", "value": 4.6, "unit": "nM"},
      {"measurement": "Ki", "setting": "[6]", "value": 4.3, "unit": "nM"}
    ]}
  ]
}
